Reference: ChEMBL document CHEMBL6153125, “Harnessing the Magic Methyl Effect: Discovery of CLPP-2068 as a Novel HsClpP Activator for the Treatment of Diffuse Large B-Cell Lymphoma” (J Med Chem, 2025)

Key:
[1] = AUCt in ICR mouse at 2 mg/kg, iv measured upto 24 hrs by LC-MS/MS analysis; details: in vivo
[2] = in vivo; details: ICR, mouse, po, 10 mg/kg
[3] = in vivo; details: ICR, mouse, po, 10 mg/kg; remark: listed apart in the source
[4] = Volume of distribution at steady state in ICR mouse at 2 mg/kg measured upto 24 hrs by LC-MS/MS analysis; details: in vivo, iv
[5] = Half life in ICR mouse at 10 mg/kg, po measured upto 24 hrs by LC-MS/MS analysis; details: in vivo
[6] = Clearance in ICR mouse at 2 mg/kg, iv measured upto 24 hrs by LC-MS/MS analysis; details: in vivo
[7] = Metabolic stability in human liver microsomes assessed as apparent intrinsic clearance
[8] = Metabolic stability in rat liver microsomes assessed as intrinsic clearance
[9] = Metabolic stability in human liver microsomes assessed as intrinsic clearance
[10] = Half life in ICR mouse at 2 mg/kg, iv measured upto 24 hrs by LC-MS/MS analysis; details: in vivo
[11] = Metabolic stability in human liver microsomes assessed as half life
[12] = Metabolic stability in human liver microsomes assessed as hepatic clearance
[13] = Metabolic stability in rat liver microsomes assessed as half life
[14] = in vivo; details: ICR, mouse, po, 10 mg/kg; remark: listed apart in the source
[15] = Metabolic stability in rat liver microsomes assessed as apparent intrinsic clearance
[16] = MRT in ICR mouse at 10 mg/kg, po measured upto 24 hrs by LC-MS/MS analysis; details: in vivo
[17] = Metabolic stability in rat liver microsomes assessed as hepatic clearance
[18] = in vivo; details: ICR, mouse, po, 10 mg/kg; remark: listed apart in the source
[19] = MRT in ICR mouse at 2 mg/kg, iv measured upto 24 hrs by LC-MS/MS analysis; details: in vivo

C[C@@H]1Cc2nc(NCc3ccc(Br)cc3)[nH]c(=O)c2CN1Cc1cccc(C#N)c1
AUC(0-t) at 24 h [1]: 1290 ng·h/mL
Tmax at 24 h [2]: 0.5 h
Cmax at 24 h [3]: 1030 ng/mL
Vd at 24 h [4]: 2.5 L/kg
half-life at 24 h [5]: 3.73 h
clearance at 24 h [6]: 25.9 mL/min/kg
CLint scaled [7]: 151 mL/min/kg
CLint scaled [8]: 344 mL/min/kg
CLint scaled [9]: 129 mL/min/kg
half-life at 24 h [10]: 2.11 h
half-life [11]: 26.9 h
CLhep predicted [12]: 18.2 mL/min/kg
half-life [13]: 10.1 h
AUC(0-t) at 24 h [14]: 3410 ng·h/mL
CLint scaled [15]: 620 mL/min/kg
MRT at 24 h [16]: 3.78 h
CLhep predicted [17]: 50.7 mL/min/kg
bioavailability at 24 h [18]: 52.8%
MRT at 24 h [19]: 1.62 h
